Source: patent US9416103B2, “Use of the aminoalkylindole JWH-073-M4 and related compounds as neutral CB1 receptor antagonists for the treatment of alcoholism, drug abuse, obesity, and obesity-related diseases” (The Board of Trustees of the University of Arkansas, priority 2012, dated 2016)
Marks after values point to notes of the source that are not given here.

Columns and labels:
CB1Rs [1] = target: T1, CB1Rs (Mus musculus (Mouse), UniProt P47746); experiment: [35S]GTPγS binding assay (G-protein activation) in mouse brain homogenates; format: biochemical
Method: Mouse brain homogenates for in vitro assays were prepared as previously described. Briefly, whole brains were harvested from B6SJL mice, snap-frozen in liquid nitrogen and stored at −80° C. On the day membrane homogenates were to be prepared, brains were thawed on ice, then pooled in a 40 mL Dounce glass homogenizer and suspended in 5 volumes of ice cold homogenization buffer (50 mM HEPES, pH 7.4, 3 mM MgCl2, and 1 mM EGTA). Brains were then subjected to 10 complete strokes with an A pestle, followed by centrifugation at 40,000×g for 10 minutes at +4° C. Resulting supernatants were discarded, and the pellet was resuspended, homogenized and centrifuged similarly twice more, with supernatants being discarded. For the final resuspension and homogenization with a B pestle, ice-cold 50 mM HEPES was used in place of homogenization buffer, and homogenates were aliquoted and stored at −80° C. Protein concentrations of homogenates were determined using the BCA™ Protein Assay (Thermo Scientific, Rockford, Ill.).
[^35S]GTPγS binding was performed as previously described. Briefly, 25 μg of mouse brain homogenates were incubated for 30 minutes at 30° C. with 0.1 nM [^35S]GTPγS, 10 μM GDP, and either cannabinoid+/−antagonist, 10 μM unlabeled GTPγS (non-specific binding) or vehicle (total binding), in triplicate, in a volume of 1 mL of buffer containing 20 mM HEPES, 10 mM MgCl2, 100 mM NaCl, 20 units/L adenosine deaminase, 0.05% BSA and the appropriate DMSO (0.1%) and/or ethanol (<0.2%) vehicle. Assay buffer containing 100 mM KCl, instead of 100 mM NaCl, was used to increase basal G-protein activity in experiments examining inverse agonism. Reactions were terminated by quick vacuum filtration through Whatman GF/B glass fiber filters, followed by five washes with ice-cold buffer (20 mM HEPES, 0.05% BSA). Filters were immediately placed into 7 mL scintillation vials to which 4 mL of ScintiVerse™ BD Cocktail scintillation fluid was added. Bound radioactivity was determined after overnight incubation at room temperature and shaking by liquid scintillation spectrophotometry with an efficiency of 93% (Tri Carb 2100 TR Liquid Scintillation Analyzer, Packard Instrument Company, Meriden, Conn.). Specific binding is expressed as picomoles of [^35S]GTPγS bound per mg of protein.
Curve fitting and statistical analyses for in vitro experiments were performed using GraphPad Prism™ version 5.0b (GraphPad Software Inc., San Diego, Calif.). The Cheng-Prusoff equation [45] was used to convert the experimental IC50 values obtained from competition receptor binding experiments to Ki values, a quantitative measure of receptor affinity. Non-linear regression for one-site competition was used to determine the IC50 for competition receptor binding. […] Data are expressed as mean±SEM. […]

CB1Rs [2] = target: T1, CB1Rs; settings: mouse brain homogenates; values previously reported [39]; read-out: [3H]CP binding Ki; cited from earlier work
[3] = concentration-effect, mouse brain homogenates

**Q.** Which results are given for CCCCCc1cc(O)c2c(c1)OC(C)(C)[C@@H]1CCC(C)=C[C@@H]21 [Δ^9-THC, Δ^9-tetrahydrocannabinol]?
**A.** [35S]GTPγS Binding, 1 μM (CB1Rs [1]; 1 μM): 0.17 ± 0.01 pmol/mg; [35S]GTPγS Binding, +O-2050 (1 μM) (CB1Rs [1]; 1 μM cannabinoid (100 nM for CP-55,940) co-incubated with CB1R antagonist O-2050 1 μM): 0.06 ± 0.01 pmol/mg; EC50 (CB1Rs [1]; [3]): 0.077 ± 0.0299 µM; [35S]GTPγS Binding Emax (CB1Rs [1]; [3]): 0.08 ± 0.01^c pmole/mg; Ki (CB1Rs [2]): 0.0153 ± 0.0045 µM
